Experiments:
beta-catenin = beta-catenin (Homo sapiens, UniProt P35222); test: fluorescence polarization binding to beta-catenin; conditions: beta-Catenin FP IC50 (nM)
beta-catenin/TCF4 = biological target: T1, beta-catenin/TCF4 (Homo sapiens, UniProt P35222); test: Nano-BRET target engagement assay (HEK293 cells); type: cell-based
T1 construct: expressed in transfected cells; host or cells: HEK293 cells

Protein sequences, listed by entry. Tags and fused reporters are not part of them.
UniProt P35222, whole entry: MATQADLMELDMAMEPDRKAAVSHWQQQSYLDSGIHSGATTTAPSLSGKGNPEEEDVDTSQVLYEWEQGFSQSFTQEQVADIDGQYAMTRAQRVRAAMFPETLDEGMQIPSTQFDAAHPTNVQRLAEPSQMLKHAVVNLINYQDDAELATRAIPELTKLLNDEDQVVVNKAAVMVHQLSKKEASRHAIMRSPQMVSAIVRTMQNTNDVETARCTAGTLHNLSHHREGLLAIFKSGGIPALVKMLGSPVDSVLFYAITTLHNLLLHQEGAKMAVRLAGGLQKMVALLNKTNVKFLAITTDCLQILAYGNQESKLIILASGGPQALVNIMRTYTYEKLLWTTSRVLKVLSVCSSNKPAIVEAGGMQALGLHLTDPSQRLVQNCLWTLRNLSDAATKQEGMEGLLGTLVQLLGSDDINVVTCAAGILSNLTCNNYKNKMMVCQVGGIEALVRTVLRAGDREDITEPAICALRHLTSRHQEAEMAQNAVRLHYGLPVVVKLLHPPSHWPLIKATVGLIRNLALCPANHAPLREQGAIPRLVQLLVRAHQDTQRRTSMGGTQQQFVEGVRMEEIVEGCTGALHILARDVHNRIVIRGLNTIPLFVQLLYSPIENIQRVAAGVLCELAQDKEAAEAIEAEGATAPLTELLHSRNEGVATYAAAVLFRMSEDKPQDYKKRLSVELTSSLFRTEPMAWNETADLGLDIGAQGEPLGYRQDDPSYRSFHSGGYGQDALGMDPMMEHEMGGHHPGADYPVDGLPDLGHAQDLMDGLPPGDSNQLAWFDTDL

SMILES | IC50 (beta-catenin) [nM] | IC50 (beta-catenin/TCF4) [µM]
CC(=O)N1CCC[C@]12CC=CCCCC1(CCCC=CCCCOC(=O)N3CC[C@@]4(C3)NC(=O)[C@H](CCCCNC(=O)CC[C@@H](C(=O)N[C@@H](C)CO)NC(=O)[C@H](Cc3csc5ccccc35)NC(=O)[C@H](Cc3ccsc3)NC4=O)NC(=O)[C@H](Cc3ccccc3)NC(=O)[C@H](C)NC(=O)[C@H](C)NC(=O)[C@H](Cc3cccc(C(=O)O)c3)NC(=O)[C@H](CC(=O)O)NC1=O)NC(=O)[C@H](CC(C)(C)C)NC(=O)[C@H](CC(=O)O)NC2=O (relative stereo) [I-65, Ac-PL3-Asp-Npg-B5-Asp-3COOHF-Ala-Ala-Phe-Lys*3-PyrS2-3Thi-BztA-GlnR*3-Alaol] | < 50 | 1.5 to 3
CC(=O)N1CCC[C@]12CC=CCCCC1(CCCC=CCCCOC(=O)N3CC[C@@]4(C3)NC(=O)[C@H](CSCc3ccc(cc3)CSC[C@@H](C(=O)N[C@@H](C)C(N)=O)NC(=O)[C@H](Cc3csc5ccccc35)NC(=O)[C@H](Cc3ccccc3C(F)(F)F)NC4=O)NC(=O)[C@H](Cc3ccccc3)NC(=O)[C@H](C)NC(=O)C(C)(C)NC(=O)[C@H](Cc3cccc(C(=O)O)c3)NC(=O)[C@H](CC(=O)O)NC1=O)NC(=O)[C@H](CC(C)(C)C)NC(=O)[C@H](CC(=O)O)NC2=O (stereo partly drawn) [I-377, Ac-PL3-Asp-Npg-B5-Asp-3COOHF-Aib-Ala-Phe-[pXyl]Cys-PyrS2-2F3MeF-BztA-Cys-Ala-NH2] | 50 to 200 | 3 to 10
CC(=O)N1CCC[C@]12CC=CCCCC1(CCCC=CCCCOC(=O)N3CC[C@@]4(C3)NC(=O)[C@H](CCCCNC(=O)CC[C@@H](C(=O)N3CCC[C@H]3CO)NC(=O)[C@H](Cc3csc5ccccc35)NC(=O)[C@H](Cc3ccsc3)NC4=O)NC(=O)[C@H](Cc3ccccc3)NC(=O)[C@H](C)NC(=O)[C@H](C)NC(=O)[C@H](Cc3cccc(C(=O)O)c3)NC(=O)[C@H](CC(=O)O)NC1=O)NC(=O)[C@H](CC(C)(C)C)NC(=O)[C@H](CC(=O)O)NC2=O (relative stereo) [I-64, Ac-PL3-Asp-Npg-B5-Asp-3COOHF-Ala-Ala-Phe-Lys*3-PyrS2-3Thi-BztA-GlnR*3-Prool] | < 50 | 1.5 to 3
CC(=O)N1CCC[C@]12CC=CCCCC1(CCCC=CCCCOC(=O)N3CC[C@@]4(C3)NC(=O)[C@H](CSc3c(F)c(F)c(c(F)c3F)SC[C@@H](C(=O)N[C@@H](C)C(N)=O)NC(=O)[C@H](Cc3csc5ccccc35)NC(=O)[C@H](Cc3ccccc3C(F)(F)F)NC4=O)NC(=O)[C@H](Cc3ccccc3)NC(=O)[C@H](C)NC(=O)C(C)(C)NC(=O)[C@H](Cc3cccc(C(=O)O)c3)NC(=O)[C@H](CC(=O)O)NC1=O)NC(=O)[C@H](CC(C)(C)C)NC(=O)[C@H](CC(=O)O)NC2=O (stereo partly drawn) [I-339, Ac-PL3-Asp-Npg-B5-Asp-3COOHF-Aib-Ala-Phe-[4FB]Cys-PyrS2-2F3MeF-BztA-Cys-Ala-NH2] | 200 to 750 | > 10
CC(=O)N1CCC[C@]12CCCCCCC1(CCCCCCCCOC(=O)N3CC[C@@]4(C3)NC(=O)[C@H](CC(C)C)NC(=O)[C@H](Cc3ccccc3)NC(=O)[C@H](C)NC(=O)[C@H](CCC(=O)N3CCC5(CCCN(C5)C(=O)CC[C@@H](C(=O)N[C@@H](C)C(N)=O)NC(=O)[C@H](Cc5csc6ccccc56)NC(=O)[C@H](Cc5ccccc5C(F)(F)F)NC4=O)CC3)NC(=O)[C@H](Cc3cccc(C(=O)O)c3)NC(=O)[C@H](CC(=O)O)NC1=O)NC(=O)[C@H](CC(C)(C)C)NC(=O)[C@H](CC(=O)O)NC2=O (stereo partly drawn) [I-134, Ac-PL3-Asp-Npg-B5-Asp-3COOHF-GlnR-Ala-Phe-Leu-PyrS2-2F3MeF-BztA-[29N2spiroundecane]GlnR-Ala-NH2] | 200 to 750 | > 10
CC(=O)N1CCC[C@]12CC=CCCCC1(CCCC=CCCCOC(=O)N3CC[C@@]4(C3)NC(=O)[C@H](CCCCNC(=O)CC[C@@H](C(=O)N[C@@H](C)C(N)=O)NC(=O)[C@H](Cc3csc5ccccc35)NC(=O)[C@H](Cc3ccsc3)NC4=O)NC(=O)[C@H](Cc3ccccc3)NC(=O)[C@H](C)NC(=O)C(C)(C)NC(=O)[C@H](Cn3cc(CC(C)(C)C(=O)O)nn3)NC(=O)[C@H](CC(=O)O)NC1=O)NC(=O)[C@H](CC(C)(C)C)NC(=O)[C@H](CO)NC2=O (relative stereo) [I-316, Ac-PL3-Ser-Npg-B5-Asp-[CH2CMe2CO2H]TriAzDap-Aib-Ala-Phe-Lys*3-PyrS2-3Thi-BztA-GlnR*3-Ala-NH2] | 50 to 200 | > 10
CC(=O)N1CCC[C@]12CC=CCCCC1(CCCC=CCCCOC(=O)N3CC[C@@]4(C3)NC(=O)[C@H](CCCCNC(=O)CC[C@@H](C(=O)N[C@@H](CCCCNC(=O)CCOCCOCCOCCOCCOCCOCCOCCOCCNC(=O)CCCC[C@@H]3SC[C@@H]5NC(=O)N[C@@H]53)C(N)=O)NC(=O)[C@H](Cc3csc5ccccc35)NC(=O)[C@H](Cc3ccccc3C(F)(F)F)NC4=O)NC(=O)[C@H](Cc3ccccc3)NC(=O)[C@H](C)NC(=O)C(C)(C)NC(=O)[C@H](Cc3cccc(C(=O)O)c3)NC(=O)[C@H](CC(=O)O)NC1=O)NC(=O)[C@H](CC(C)(C)C)NC(=O)[C@H](CC(=O)O)NC2=O (relative stereo) [I-303, Ac-PL3-Asp-Npg-B5-Asp-3COOHF-Aib-Ala-Phe-Lys*3-PyrS2-2F3MeF-BztA-GlnR*3-[BiotinPEG8]Lys-NH2] | < 50 | > 10
CC(=O)N1CCC[C@]12CC=CCCCC1(CCCC=CCCCOC(=O)N3CC[C@@]4(C3)NC(=O)[C@H](CC(C)C)NC(=O)[C@H](Cc3ccccc3)NC(=O)[C@H](C)NC(=O)[C@H](CCCCNC(=O)c3ccccc3-c3ccccc3C(=O)NCCCC[C@@H](C(N)=O)NC(=O)[C@H](Cc3csc5ccccc35)NC(=O)[C@H](Cc3ccccc3Cl)NC4=O)NC(=O)[C@H](Cc3cccc(C(=O)O)c3)NC(=O)[C@H](CC(=O)O)NC1=O)NC(=O)[C@H](CC(C)(C)C)NC(=O)[C@H](CC(=O)O)NC2=O (stereo partly drawn) [I-53, Ac-PL3-Asp-Npg-B5-Asp-3COOHF-[diphenate]Lys-Ala-Phe-Leu-PyrS2-2ClF-BztA-Lys-NH2] | 50 to 200 | > 10
CC(=O)N1CCC[C@]12CC=CCCCC1(CCCC=CCCCOC(=O)N3CC[C@@]4(C3)NC(=O)[C@H](CC(C)C)NC(=O)[C@H](Cc3ccccc3)NC(=O)[C@H](C)NC(=O)[C@H](CCCCNC(=O)C(C)(C)C(=O)NCCCC[C@@H](C(N)=O)NC(=O)[C@H](Cc3csc5ccccc35)NC(=O)[C@H](Cc3ccccc3Cl)NC4=O)NC(=O)[C@H](Cc3cccc(C(=O)O)c3)NC(=O)[C@H](CC(=O)O)NC1=O)NC(=O)[C@H](CC(C)(C)C)NC(=O)[C@H](CC(=O)O)NC2=O (stereo partly drawn) [I-52, Ac-PL3-Asp-Npg-B5-Asp-3COOHF-[Me2Mal]Lys-Ala-Phe-Leu-PyrS2-2ClF-BztA-Lys-NH2] | < 50 | > 10
CC(=O)N1CCC[C@]12CCCCCCC1(CCCCCCCCOC(=O)N3CC[C@@]4(C3)NC(=O)[C@H](CC(C)C)NC(=O)[C@H](Cc3ccccc3)NC(=O)[C@H](C)NC(=O)[C@H](CCC(=O)N3CCCC5(CCN(CC5)C(=O)CC[C@@H](C(=O)N[C@@H](C)C(N)=O)NC(=O)[C@H](Cc5csc6ccccc56)NC(=O)[C@H](Cc5ccccc5C(F)(F)F)NC4=O)C3)NC(=O)[C@H](Cc3cccc(C(=O)O)c3)NC(=O)[C@H](CC(=O)O)NC1=O)NC(=O)[C@H](CC(C)(C)C)NC(=O)[C@H](CC(=O)O)NC2=O (stereo partly drawn) [I-135, Ac-PL3-Asp-Npg-B5-Asp-3COOHF-[29N2spiroundecane]GlnR-Ala-Phe-Leu-PyrS2-2F3MeF-BztA-GlnR-Ala-NH2] | > 1000 | > 10
CC(=O)N1CCC[C@]12CCCCCCC1(CCCCCCCCOC(=O)N3CC[C@@]4(C3)NC(=O)[C@H](CC(C)C)NC(=O)[C@H](Cc3ccccc3)NC(=O)[C@H](C)NC(=O)[C@H](CCC(=O)N3CCC5(CCN(CC5)C(=O)CC[C@@H](C(=O)N[C@@H](C)C(N)=O)NC(=O)[C@H](Cc5csc6ccccc56)NC(=O)[C@H](Cc5ccccc5C(F)(F)F)NC4=O)CC3)NC(=O)[C@H](Cc3cccc(C(=O)O)c3)NC(=O)[C@H](CC(=O)O)NC1=O)NC(=O)[C@H](CC(C)(C)C)NC(=O)[C@H](CC(=O)O)NC2=O (stereo partly drawn) [I-133, Ac-PL3-Asp-Npg-B5-Asp-3COOHF-GlnR-Ala-Phe-Leu-PyrS2-2F3MeF-BztA-[39N2spiroundecane]GlnR-Ala-NH2] | 750 to 1000 | > 10
CC(=O)N1CCC[C@]12CC=CCCCC13CCCC=CCCCOC(=O)N4CC[C@@]5(C4)NC(=O)[C@H](CCCCNC(=O)CC[C@@H](C(=O)N[C@@H](C)C(N)=O)NC(=O)[C@H](Cc4csc6ccccc46)NC(=O)[C@H](Cc4ccsc4)NC5=O)NC(=O)[C@H](Cc4ccccc4)NC(=O)[C@H](C)NC(=O)[C@H](CCCCNC(=O)CC[C@H](NC(=O)[C@H](CC(=O)O)NC2=O)C(=O)N1)NC(=O)[C@H](Cc1cccc(C(=O)O)c1)NC(=O)[C@H](CC(=O)O)NC3=O (relative stereo) [I-74, Ac-PL3-Asp-GlnR**3-B5-Asp-3COOHF-Lys**3-Ala-Phe-Lys*3-PyrS2-3Thi-BztA-GlnR*3-Ala-NH2] | < 50 | > 10
CC(=O)N1CCC[C@]12CC=CCCCC1(CCCC=CCCCOC(=O)N3CC[C@@]4(C3)NC(=O)[C@H](CC(C)C)NC(=O)[C@H](Cc3ccccc3)NC(=O)[C@H](C)NC(=O)[C@H](CCCCNC(=O)C(C)(C)C(=O)NCCCC[C@@H](C(N)=O)NC(=O)[C@H](Cc3csc5ccccc35)NC(=O)[C@H](Cc3ccsc3)NC4=O)NC(=O)[C@H](Cc3cccc(C(=O)O)c3)NC(=O)[C@H](CC(=O)O)NC1=O)NC(=O)[C@H](CC(C)(C)C)NC(=O)[C@H](CC(=O)O)NC2=O (stereo partly drawn) [I-47, Ac-PL3-Asp-Npg-B5-Asp-3COOHF-[Me2Mal]-Lys-Ala-Phe-Leu-PyrS2-3Thi-BztA-Lys-NH2] | < 50 | > 10
CC(=O)N1CCC[C@]12CC=CCCCC1(CCCC=CCCCOC(=O)N3CC[C@@]4(C3)NC(=O)[C@H](CCCNC(=O)C[C@@H](C(N)=O)NC(=O)[C@H](Cc3csc5ccccc35)NC(=O)[C@H](Cc3ccsc3)NC4=O)NC(=O)[C@H](Cc3ccccc3)NC(=O)[C@H](C)NC(=O)[C@H](C)NC(=O)[C@H](Cc3cccc(C(=O)O)c3)NC(=O)[C@H](CC(=O)O)NC1=O)NC(=O)[C@H](CC(C)(C)C)NC(=O)[C@H](CC(=O)O)NC2=O (relative stereo) [I-39, Ac-PL3-Asp-Npg-B5-Asp-3COOHF-Ala-Ala-Phe-Orn*3-PyrS2-3Thi-BztA-AsnR*3-NH2] | < 50 | > 10
